Reference: article PMC3063489 (Molecular and biochemical parasitology, 2011)

Amino acid sequences for entries named in this document (tags omitted).
UniProt P23975, whole entry: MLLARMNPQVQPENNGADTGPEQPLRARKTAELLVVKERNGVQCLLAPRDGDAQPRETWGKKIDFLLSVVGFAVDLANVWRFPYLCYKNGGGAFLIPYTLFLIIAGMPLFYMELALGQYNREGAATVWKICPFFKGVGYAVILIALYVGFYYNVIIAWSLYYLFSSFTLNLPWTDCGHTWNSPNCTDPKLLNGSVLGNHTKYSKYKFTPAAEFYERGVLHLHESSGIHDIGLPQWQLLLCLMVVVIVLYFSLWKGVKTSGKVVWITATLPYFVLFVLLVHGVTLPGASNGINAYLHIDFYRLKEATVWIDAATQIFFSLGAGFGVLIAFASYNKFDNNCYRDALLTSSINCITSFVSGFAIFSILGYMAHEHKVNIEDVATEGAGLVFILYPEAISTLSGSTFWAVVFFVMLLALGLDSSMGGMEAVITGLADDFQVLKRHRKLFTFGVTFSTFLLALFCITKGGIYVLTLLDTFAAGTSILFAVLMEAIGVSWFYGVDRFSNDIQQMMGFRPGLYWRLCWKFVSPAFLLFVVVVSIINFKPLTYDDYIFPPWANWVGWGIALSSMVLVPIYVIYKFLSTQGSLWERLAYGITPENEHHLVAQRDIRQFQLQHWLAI

Target: hNET (Homo sapiens, UniProt P23975)
Type: cell-based

CC(NC(C)(C)C)C(=O)c1cccc(Cl)c1 (stereo not shown) [Bupropion]
IC50: 9.21 ± 1.19 µM
